This note sets out measurements from ChEMBL document CHEMBL1150971, “Crystal structures of catalytic subunit of cAMP-dependent protein kinase in complex with isoquinolinesulfonyl protein kinase inhibitors H7, H8, and H89. Structural implications for selectivity” (J Biol Chem, 1996).

Broadly, the pKi is the negative decadic logarithm of the Ki, by convention in mol/L. A high value points to a low Ki.

The nature of test [1]: Inhibitory constant against cGPK (PKG). Further details: species or system Sus scrofa.
The target in test [2] is cAMP-dependent protein kinase A (Bos taurus, UniProt P00515+P00517+P05131+P31322). Kind of test: Inhibitory constant against bovine cAPK (PKA). The class given is protein-complex assay.

SMILES strings stand for the structures. pKi: −log10 of the molar value.

Take `O=S(=O)(NCCNC/C=C/c1ccc(Br)cc1)c1cccc2cnccc12`: the pKi in test [1] and in test [2] was 6.32 in each case.
